The values below come from ChEMBL document CHEMBL6120980, “Discovery of First Branched-Chain Ketoacid Dehydrogenase Kinase (BDK) Inhibitor Clinical Candidate PF-07328948” (J Med Chem, 2025).

Format in all cases: functional, organism-based
Assay [1] has as its target Branched-chain alpha-ketoacid dehydrogenase kinase (Mus musculus) (UniProt O55028). Nature of the assay: In vivo inhibition of BDK in diet-induced obese male C57BL/6J mouse model assessed as reduction in plasma valine level administered orally as once daily dose for 10 days by mass spectrometric analysis. The following applies: route po, time 10.0 day.
The target of assay [2] is Branched-chain alpha-ketoacid dehydrogenase kinase (Rattus norvegicus) (UniProt Q00972). Nature of the assay: In vivo inhibition of BDK in obese ZSF1 rat model assessed as reduction in plasma ketoleucine level at 17 to 19 mg/kg/day administered via chow diet and measured after 3 weeks by mass spectrometric analysis. The following applies: dose lower […], dose upper […].

Assay [3] has the same target. Description: In vivo inhibition of BDK in obese ZSF1 rat model assessed as reduction in plasma ketoleucine level at 54 to 59 mg/kg/day administered via chow diet and measured after 3 weeks by mass spectrometric analysis. The settings on record: dose lower […], dose upper […].
Assay [4] has the same target. Description: In vivo inhibition of BDK in obese ZSF1 rat model assessed as improvement in exercise capacity by measuring increase in distance run at 54 to 59 mg/kg/day administered via chow diet and measured after 9 weeks. The settings on record: dose lower […], dose upper […].
Assay [5] has the same target. Description: In vivo inhibition of BDK in obese ZSF1 rat model assessed as improvement in exercise capacity by measuring increase in time to fatigue at 54 to 59 mg/kg/day administered via chow diet and measured after 9 weeks. The following applies: dose lower […], dose upper […].
Assay [6] shares this target. Description: In vivo inhibition of BDK in obese ZSF1 rat model assessed as increase in left ventricular fractional shortening at 54 to 59 mg/kg/day administered via chow diet and measured after 7 weeks by ECG analysis. The settings on record: dose lower […], dose upper […].
The target is the same in assay [7]. Description: In vivo inhibition of BDK in obese ZSF1 rat model assessed as increase in ejection fraction at 54 to 59 mg/kg/day administered via chow diet and measured after 7 weeks by ECG analysis. The settings on record: dose lower […], dose upper […].
For assay [8] the target is unchanged. Nature of the assay: In vivo inhibition of BDK in obese ZSF1 rat model assessed as reduction in left atrial size at 54 to 59 mg/kg/day administered via chow diet and measured after 7 weeks by ECG analysis. The following applies: dose lower […], dose upper […].

Each structure is given as a SMILES string. Calls of active or inactive are those of the source. No cut-off for these calls is given here.

Turning to `COc1c(F)c(F)cc(-c2c(C(=O)O)sc3cc(F)ccc23)c1F`, the inhibition entry in assay [1] is “Dose-dependent-effect”; in assay [2], “Active; Small But Significant Decrease Observed”; in assay [3], “Active; Large Decrease In Ketoleucine Level Observed”. For the same compound, the inhibition result in assay [4], in assay [5], in assay [6], in assay [7] and in assay [8] was “Active” in each case.
